Only a part is listed here, and it is no random draw. Activity calls are given as the source filed them.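 How the source made its calls: active means activation at or above 40% of the spot to cytoplasm intensity ratio, with at least 20 cells analyzed; inconclusive means wells under 20 cells, flagged as cytotoxic or low count; inactive means the rest.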
Target: Neurotensin receptor type 1 (Homo sapiens) (UniProt P30989)
Test: agonists of NTR1, primary screen, imaging, U2OS cells, beta-arrestin-GFP, high content (AID 493036) (AID 493036);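 further: 0% = DMSO without peptide and 100% = 100 nM NTR1 peptide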
Settings: NTR1-U2OS beta-arrestin-GFP spot imaging, agonist mode; at 20 µM; hits give high values

Sequences of proteins named here, by UniProt entry; tags and fusion partners are left off.
UniProt P30989, whole entry: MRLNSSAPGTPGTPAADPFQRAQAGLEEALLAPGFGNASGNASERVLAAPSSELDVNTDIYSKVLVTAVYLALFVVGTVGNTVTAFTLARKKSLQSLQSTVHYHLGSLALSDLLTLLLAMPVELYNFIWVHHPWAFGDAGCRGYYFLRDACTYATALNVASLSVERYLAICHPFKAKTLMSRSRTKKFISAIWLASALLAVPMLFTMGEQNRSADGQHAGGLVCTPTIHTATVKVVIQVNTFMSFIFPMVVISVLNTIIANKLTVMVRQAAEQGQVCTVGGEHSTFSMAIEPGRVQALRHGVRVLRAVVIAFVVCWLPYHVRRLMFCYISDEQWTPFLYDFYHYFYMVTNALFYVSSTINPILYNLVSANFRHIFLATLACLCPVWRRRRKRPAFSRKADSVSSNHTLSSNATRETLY

Row | SMILES | activation
1 | CC(=O)c1ccc(N2CC2c2ccncc2)cc1 (stereo unspecified) | inactive: -1.6%

From PubChem BioAssay AID493036 (Sanford-Burnham Center for Chemical Genomics, 2011)
